Laboratory results from PMC9653265 (Journal of medicinal chemistry, 2022).

Molecular target: T1, hP2X4R (Homo sapiens, UniProt Q99571)
T1 sequence (Q99571 1-388): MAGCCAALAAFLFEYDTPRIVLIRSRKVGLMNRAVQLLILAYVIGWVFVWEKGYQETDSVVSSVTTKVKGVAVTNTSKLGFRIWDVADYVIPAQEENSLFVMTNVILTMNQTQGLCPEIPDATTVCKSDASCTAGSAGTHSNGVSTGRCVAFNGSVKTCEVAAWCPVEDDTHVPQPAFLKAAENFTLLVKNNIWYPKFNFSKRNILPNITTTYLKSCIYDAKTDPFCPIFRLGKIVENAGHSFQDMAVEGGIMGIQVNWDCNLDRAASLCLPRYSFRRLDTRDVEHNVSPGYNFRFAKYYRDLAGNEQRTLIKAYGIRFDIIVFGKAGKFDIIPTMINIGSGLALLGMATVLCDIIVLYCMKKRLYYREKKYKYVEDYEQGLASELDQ
Assay: hP2X4R channel assay
Assay type: cell-based

Nc1ncnc2c1ncn2[C@@H]1O[C@H](COP(=O)(O)OP(=O)(O)OP(=O)(O)O)[C@H]2OC3(O[C@H]21)C([N+](=O)[O-])=CC(=[N+]([O-])[O-])C=C3[N+](=O)[O-] (stereo partly drawn) [TNP-ATP, 2′,3′-O-Trinitrophenyl-adenosine-5′-triphosphate, reference compound]
IC50: 2770 nM

Cc1ccc2c3c(ccc2c1)N(c1cccc(-c2noc(=S)[n-]2)c1)C(=O)CC(=O)N3.[Na+] [Compound 22c]
fold higher hP2X4R IC50 value than 21u: 3 fold

CCN(CC)CC.O=C1CC(=O)N(c2ccnc(-c3noc(=S)[nH]3)c2)c2ccc3ccccc3c2N1 [Compound 21u, 5-(2-(5-Thioxo-4,5-dihydro-1,2,4-oxadiazol-3-yl)pyridin-4-yl)-1,5-dihydro-2H-naphtho[1,2-b][1,4]diazepine-2,4(3H)-dione]
fold higher activity (potency) at P2X4R than 5: 3 fold
